# Source: PubChem BioAssay (NCI)
# The entries are a selection whose mix differs from that of the whole data set. More than one record can exist for a structure, and the calls need not agree. Activity calls are given as the source filed them. Rule as the data show it: active = growth inhibition above about 70%; inactive = the rest.
# Assay: NCI Yeast Anticancer Drug Screen. Data for the rad50EPP+ strain (AID 151);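 also: 0% = growth of vehicle-treated control cultures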
# Details: S. cerevisiae rad50 mutant strain, active compounds read high
# Procedure: Growth inhibition of yeast strains with defined genetic alterations is measured as a screen for potential anti-cancer activity. Selected strains with alterations in DNA damage repair or cell cycle control were exposed to compounds and growth inhibition was measured relative to vehicle treated controls. The strain used in this assay is rad50EPP+
Structure (SMILES),growth inhibition (at 1.2 µM),growth inhibition (at 3.7 µM),growth inhibition (at 11.0 µM),growth inhibition (at 33.0 µM),growth inhibition (at 100.0 µM)
ClCCN1CCCCC1CCl (stereo not given),inactive: 0%,inactive: 5%,inactive: 30%,active: 82%,active: 96%
COc1ccc(C[N+](C)(CCCl)CCCl)c([N+](=O)[O-])c1,inactive: 62%,inactive: 66%,active: 81%,active: 88%,active: 90%
Cc1ccc([N+](=O)[O-])c(C[N+](C)(CCCl)CCCl)c1,inactive: 22%,inactive: 66%,active: 93%,active: 96%,active: 97%
Cc1cccc(C[N+](C)(CCCl)CCCl)c1[N+](=O)[O-],inactive: 29%,inactive: 59%,active: 93%,active: 97%,active: 97%
Cn1cnc([N+](=O)[O-])c1C[N+](C)(CCCl)CCCl,inactive: 14%,inactive: 47%,active: 88%,active: 94%,active: 96%
COc1ccc([N+](=O)[O-])c(C[N+](C)(CCCl)CCCl)c1,inactive: 11%,inactive: 37%,inactive: 64%,active: 94%,active: 96%
